Values of other authors, collected in patent US20190262453A1, “DESIGN AND COMPOSITION OF CELL-STABILIZED PHARMACEUTICAL FORMULATIONS” (THE REGENTS OF THE UNIVERSITY OF MICHIGAN, priority 2016, published 2019).

Details: in vivo; cited from earlier work

## Cc1cc2c(s1)Nc1ccccc1N=C2N1CCN(C)CC1 [Olanzapine]
  Vd: 16.4 L/kg
